Tests used:
[1] = molecular target: T1, Calcium/calmodulin-dependent protein kinase type IV (Homo sapiens) (UniProt Q16566); settings: 10 uM
T1 sequence (whole entry): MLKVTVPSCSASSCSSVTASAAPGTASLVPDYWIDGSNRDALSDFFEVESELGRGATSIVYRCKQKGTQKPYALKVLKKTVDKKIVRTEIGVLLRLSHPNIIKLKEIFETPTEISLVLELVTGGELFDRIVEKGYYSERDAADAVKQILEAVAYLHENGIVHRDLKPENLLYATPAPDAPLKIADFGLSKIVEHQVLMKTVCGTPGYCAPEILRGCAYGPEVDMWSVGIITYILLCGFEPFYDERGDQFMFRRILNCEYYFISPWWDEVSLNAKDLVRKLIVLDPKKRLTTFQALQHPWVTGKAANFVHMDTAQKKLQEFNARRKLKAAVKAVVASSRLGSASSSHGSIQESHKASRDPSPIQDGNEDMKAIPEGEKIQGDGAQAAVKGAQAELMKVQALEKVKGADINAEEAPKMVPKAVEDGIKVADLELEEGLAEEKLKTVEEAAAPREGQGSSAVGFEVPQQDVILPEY

Sequences of proteins named here, by UniProt entry; tags and fusion partners are left off. A change or cut given only in a name is not applied to a line headed by its entry.
UniProt Q8IU85: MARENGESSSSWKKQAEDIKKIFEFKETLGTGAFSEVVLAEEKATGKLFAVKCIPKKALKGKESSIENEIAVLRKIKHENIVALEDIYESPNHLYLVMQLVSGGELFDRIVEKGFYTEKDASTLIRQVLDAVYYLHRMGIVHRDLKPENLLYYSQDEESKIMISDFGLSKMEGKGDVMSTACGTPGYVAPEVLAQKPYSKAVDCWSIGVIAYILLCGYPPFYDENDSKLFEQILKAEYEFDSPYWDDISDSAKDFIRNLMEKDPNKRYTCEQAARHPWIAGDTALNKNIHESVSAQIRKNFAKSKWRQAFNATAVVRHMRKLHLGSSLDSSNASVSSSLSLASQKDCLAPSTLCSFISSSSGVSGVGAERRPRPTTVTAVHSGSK
UniProt O43293: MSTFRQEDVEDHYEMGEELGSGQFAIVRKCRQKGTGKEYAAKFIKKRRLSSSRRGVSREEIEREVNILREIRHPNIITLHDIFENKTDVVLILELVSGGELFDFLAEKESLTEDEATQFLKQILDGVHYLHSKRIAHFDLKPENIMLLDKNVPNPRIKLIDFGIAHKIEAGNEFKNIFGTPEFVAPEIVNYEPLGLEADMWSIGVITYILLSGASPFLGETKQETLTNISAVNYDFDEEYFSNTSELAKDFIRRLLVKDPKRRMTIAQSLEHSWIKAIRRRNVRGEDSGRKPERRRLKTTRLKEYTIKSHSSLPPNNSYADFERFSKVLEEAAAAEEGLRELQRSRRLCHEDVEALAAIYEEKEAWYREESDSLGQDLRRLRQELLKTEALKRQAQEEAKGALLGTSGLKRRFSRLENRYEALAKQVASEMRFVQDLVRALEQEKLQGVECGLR

[2] = molecular target: Calcium/calmodulin-dependent protein kinase type 1D (Homo sapiens) (UniProt Q8IU85)
[3] = molecular target: Death-associated protein kinase 3 (Homo sapiens) (UniProt O43293); settings: 10 uM

Row | Structure (SMILES) | ΔTm [1] | ΔTm [2] | ΔTm [3]
1 | CNCCN(C)c1ncc(C(N)=O)c(Nc2cccc(C(F)(F)F)c2)n1 | 3.36 °C | 2.43 °C | 
2 | CN(C)CCN(C)c1ncc(C(N)=O)c(Nc2cccc(C(F)(F)F)c2)n1 | 2.21 °C | 4.68 °C | 3.45 °C
3 | CNC(=O)c1cnc(NCCN)nc1Nc1cccc(C(F)(F)F)c1 |  | 0.12 °C | 1.36 °C

Reference: ChEMBL document CHEMBL4627396 (J Med Chem, 2020)
